Data reported in patent publication US8598357B2, “Benzodioxole piperidine compounds” (Hoffmann-La Roche Inc., priority 2011, dated 2013).

The chains behind the UniProt entries cited, without tags or fusion partners.
UniProt P14416, whole entry: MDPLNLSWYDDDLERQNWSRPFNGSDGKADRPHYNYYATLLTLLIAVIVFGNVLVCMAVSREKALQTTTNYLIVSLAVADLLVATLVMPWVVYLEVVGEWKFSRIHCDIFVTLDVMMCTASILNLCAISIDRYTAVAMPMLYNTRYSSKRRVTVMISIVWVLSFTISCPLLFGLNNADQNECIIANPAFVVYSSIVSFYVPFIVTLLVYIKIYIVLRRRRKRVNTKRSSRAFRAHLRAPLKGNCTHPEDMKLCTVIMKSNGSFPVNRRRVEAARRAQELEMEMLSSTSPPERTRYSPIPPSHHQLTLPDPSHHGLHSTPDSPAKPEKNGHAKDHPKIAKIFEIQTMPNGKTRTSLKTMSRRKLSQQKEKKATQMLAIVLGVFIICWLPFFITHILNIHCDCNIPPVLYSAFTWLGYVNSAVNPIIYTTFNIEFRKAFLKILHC

Biological target: D2 receptor (Homo sapiens (Human), UniProt P14416)
Experiment: Radioligand binding assay ([3H]-spiperone) on membranes of HEK293 EBNA cells expressing human D2 receptor
Details: human receptor in HEK293 EBNA cells; 0.7 nM [3H]-spiperone

SMILES: O=C(CC1COCCO1)N[C@H]1CC[C@H](CCN2CCC(c3cccc4c3OCO4)CC2)CC1 (stereo partly drawn) [Example 3, Trans-N-{4-[2-(4-Benzo[1,3]dioxol-4-yl-piperidin-1-yl)-ethyl]-cyclohexyl}-2-[1,4]dioxan-2-yl-acetamide]
- Ki: 530 nM
